Assay results as given in patent US7517873B2, “Substituted pyrimidodiazepines” (Hoffman-La Roche Inc., priority 2007, dated 2009).

Chains of the proteins cited; added tags and fusions are not shown.
UniProt P53350, whole entry: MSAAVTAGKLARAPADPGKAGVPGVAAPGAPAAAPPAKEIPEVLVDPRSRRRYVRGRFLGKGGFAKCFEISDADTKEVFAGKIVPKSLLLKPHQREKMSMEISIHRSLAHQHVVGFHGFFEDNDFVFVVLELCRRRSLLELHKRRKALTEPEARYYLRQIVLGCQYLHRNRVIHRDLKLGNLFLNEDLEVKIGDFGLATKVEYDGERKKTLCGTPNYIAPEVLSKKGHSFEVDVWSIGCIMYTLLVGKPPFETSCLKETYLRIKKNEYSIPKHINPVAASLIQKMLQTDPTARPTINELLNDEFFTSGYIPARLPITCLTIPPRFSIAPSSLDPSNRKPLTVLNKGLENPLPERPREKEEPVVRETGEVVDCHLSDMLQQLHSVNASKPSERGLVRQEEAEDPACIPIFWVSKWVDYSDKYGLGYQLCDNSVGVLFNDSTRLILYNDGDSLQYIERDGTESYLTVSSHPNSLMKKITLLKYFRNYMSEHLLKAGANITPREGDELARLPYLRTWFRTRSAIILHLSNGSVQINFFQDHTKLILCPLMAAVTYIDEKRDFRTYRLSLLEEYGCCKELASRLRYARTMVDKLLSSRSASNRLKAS

Molecular target: T1, GST-PLK1 (Homo sapiens, UniProt P53350)
T1 construct: Full-length, active GST-PLK1 is purified from Sf9 insect cells; made in house; host or cells: Sf9 insect cells
Assay: Biochemical Characterization Assay: GST-PLK1 kinase HTRF assay with GST-p53 substrate
Method: Biochemical Characterization Assay
Full-length, active GST-PLK1 is purified from Sf9 insect cells, and full-length GST-p53 is purified from E. coli. Anti-phospho p53 antibody is from Cell Signaling Technology. Europium-conjugated anti-rabbit antibody is from PerkinElmer Life and Analytical Sciences. APC-conjugated anti-GST antibody is from Prozyme.
To assay compounds of the invention, two microliters of test compound (0.6 nM-4 mM) in DMSO or plain DMSO for control wells, 38 microliters of 20 mM HEPES pH 7, 50 mM NaCl, 10 mM MgCl2, 0.5 mM TCEP, 0.1 mM sodium orthovanadate, 0.1 mg/mL BSA, and 0.05% Triton X-100 (Kinase Assay Buffer) are added. […] Six microliters of GST-PLK1 (3 ug/mL) in Kinase Assay Buffer are then added and the solution incubated at 37° C. for 35 minutes. Six microliters of solution containing 43 mM EDTA to stop the reaction and a 1:600 dilution of anti-phospho-p53 antibody in 20 mM HEPES pH 7, 50 mM NaCl, and 0.5 mg/mL BSA (Antibody Binding Buffer) are added and the solution incubated at 37° C. for 30 minutes. […] The HTRF signal is read on an Envision reader from PerkinElmer Life and Analytical Sciences.

COc1cc(C(=O)NC2CCN(C)CC2)ccc1Nc1ncc2c(n1)N(C1CCCCC1)CCC(=O)N2C [I-20, 4-(9-Cyclohexyl-5-methyl-6-oxo-6,7,8,9-tetrahydro-5H-pyrimido[4,5-b][1,4]diazepin-2-ylamino)-3-methoxy-N-(1-methyl-piperidin-4-yl)-benzamide]
IC50: < 500 nM
